{"source": "patent US7122651B1", "about": "“Nucleic acid molecules encoding opioid growth factor receptors” (priority 1998, dated 2006)", "target": "T1, nuclear homogenates of human pancreatic tumor cells (PANC-1) (Homo sapiens, UniProt Q9NZT2)", "T1 construct": "host or cells: PANC-1; nuclear (P1) homogenates, and P2, P3 and S3 fractions in the fractionation study", "T1 sequence (Q9NZT2 1-677)": "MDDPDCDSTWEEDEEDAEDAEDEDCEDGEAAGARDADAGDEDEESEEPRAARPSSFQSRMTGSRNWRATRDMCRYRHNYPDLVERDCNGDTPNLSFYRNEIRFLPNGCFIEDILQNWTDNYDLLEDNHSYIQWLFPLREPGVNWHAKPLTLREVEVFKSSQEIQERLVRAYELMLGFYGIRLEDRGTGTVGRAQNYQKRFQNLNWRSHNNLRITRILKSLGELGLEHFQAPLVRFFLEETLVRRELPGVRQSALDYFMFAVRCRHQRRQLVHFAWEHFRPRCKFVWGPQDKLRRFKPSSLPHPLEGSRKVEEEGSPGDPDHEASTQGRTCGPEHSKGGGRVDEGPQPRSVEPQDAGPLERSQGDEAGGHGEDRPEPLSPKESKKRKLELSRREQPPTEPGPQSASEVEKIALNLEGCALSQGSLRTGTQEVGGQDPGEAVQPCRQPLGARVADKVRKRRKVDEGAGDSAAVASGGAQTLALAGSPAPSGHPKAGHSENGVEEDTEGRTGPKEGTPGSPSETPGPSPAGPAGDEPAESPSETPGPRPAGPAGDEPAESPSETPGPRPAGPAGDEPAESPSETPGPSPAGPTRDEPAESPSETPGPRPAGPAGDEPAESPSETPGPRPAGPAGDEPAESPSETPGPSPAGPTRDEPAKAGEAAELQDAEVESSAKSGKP", "assay": "Competition for binding of [^3H]-[Met^5]-enkephalin in PANC-1 nuclear homogenates"}
{"substance": "Leucine enkephalin", "values": [{"measurement": "competition for [^3H][Met^5]-enkephalin binding", "setting": "1 or 2 nM radioligand", "result": "little or no competition"}, {"measurement": "IC50/Kd", "setting": "competition with [^3H]-[Met^5]-enkephalin, at least 2 independent assays", "result": ">10^−4"}]}
